Legend:
[1] = for In vitro degradation of conjugate (24 hrs in PBS at 37° C.) / In vitro release of free drug (24 hrs in PBS at 37° C.): 0.1x PBS, pH = 7.4, 37° C.; for stability of the linker toward hydrolysis in vitro: CDP-linker-docetaxel, 37° C., 0.1x PBS pH 7.4, 24 h
Protocol: A 10 mg/mL (with regard to polymer) solution of each CDP-linker-DTX nanoparticle was prepared in water (pH<5) or in 0.1×PBS buffer (pH=7.4). An aliquot of 100 μL was transferred into corresponding HPLC vials. A vial containing each CDP-linker-DTX nanoparticle in water for each designated time point was placed in both: 1) a water bath at 37° C. and 2) kept at room temperature at 25° C. Samples were mixed using a water bath shaker at 100 rpm during the experiments. At each designated time point, a vial was removed for each CDP-linker-DTX nanoparticle and processed for HPLC using a sample preparation procedure.
If there was any precipitated material in the vial, the contents were also stirred to dissolve the precipitate. If the sample was still opaque, an additional 25 μL of 0.1% formic acid in ACN was added.
The sample degradation was calculated based on the percentage of the amount of conjugated drug with regard to the initial starting point of the experiment (at t=0).

[2] = Particle properties (Zavg, PDI, Dv50, Dv90) by dynamic light scattering; type: physicochemical
Description: Particle solution properties were characterized by dynamic light scattering (DLS) spectrometer.

Substance	In vitro degradation of conjugate (24 hrs in PBS at 37° C.) [1] [%]	In vitro release of free drug (24 hrs in PBS at 37° C.) [1] [%]	stability of the linker toward hydrolysis in vitro [1]	Dv50 [2] [nm]	Dv90 [2] [nm]	Particle PDI [2]	Zavg (Z-average) [2] [nm]
CDP-hexanoate-docetaxel [CDP-hexanoate-docetaxel nanoparticles]	7	8	relatively stable toward hydrolysis in vitro				
CDP-Alanine Glycolate-Docetaxel	96	95	more susceptible to hydrolysis	12.9	26.1	0.280	35.81
CDP-2′-glycine-docetaxel	84	88	more susceptible to hydrolysis				

Reference: US20140328918A1, “METHODS OF TREATING A SUBJECT AND RELATED PARTICLES, POLYMERS AND COMPOSITIONS” (CERULEAN PHARMA INC., priority 2010, published 2014)
